This test has as its system MC38 colon cancer tumor. Nature of the test: MC38 colon cancer tumor model, tumor growth inhibition (Example 1). The test is classed as in vivo, mice. The note with it: dosed Day 1, 4, 8, 12; aPD-1 3 mg/kg; IL-2 10,000 IU/animal; eIL-2 groups + US. As to the method: To determine the efficacy of the compositions of the invention, a bolus injection of SonoLeukin (compared to an infusion of rIL-2, e.g., Proleukin), either as a monotherapy or in combination with co-administered aPD-1 was tested for efficacy against tumor growth. Quantities of IL-2 used were provided in a 1 mg sterile sealed vial. For the SonoLeukin, the starting concentration of 1 mg IL-2 was reconstituted using only 0.25 mL of sterile water for injection (SWFI). Imagent microbubbles were reconstituted as per its package insert. Jugular catheters were surgically implanted in a total of 56 animals (8 animals per arm) prior to tumor xenograft inoculation. Treated animals were dosed on Day 1, Day 4, Day 8 and Day 12. Ultrasound (US) device used was a TE7 and P4-2S probe (Mindray North America, New Jersey, USA); settings used were 2.2 MHz frequency, 0.34 mechanical index (MI) during insonation, once every 10 seconds, a microbubble destruct pulse of 1.3 MI lasting 1,100 milliseconds was applied. Total insonation time of 5 minutes per animal was used. […]

Take “IL-2: recombinant Human IL-2 (GenScript), not encapsulated in microbubbles”: the “mean tumor growth inhibition rate (versus control Group 1)” value is given as 8.97%.

The record behind these values is patent US12714676B2, “Compositions and methods for targeted delivery of therapeutics using carriers” (VESSELON, INC., priority 2020, dated 2026).
